Publication PMC11929711 (Plant Cell Reports, 2025)

Tests used:
PDL1His(ΔXF) [1] = target: T1, PDL1His(ΔXF) (human, mainly complex neutral N-glycans (GnGn); mannosidic and hybrid glycans (Man4Gn, Man5Gn) only on N192; N219 mostly unglycosylated); test: ELISA; optimized settings: plates coated with 1 µg PDL1His; serial dilutions of ^WTPD1-Fc fusions 20,000-10 ng/mL; detected with anti-human IgG-HRP; settings: both partners purified
T1 construct: ectodomain (ECD) of human programmed cell death 1 ligand (PDL1); also called PDL1His (GnGn); recombinant PDL1His; source: N. benthamiana ΔXF leaves, transient, apoplastic fluid, purified (Ni-NTA); also unpurified in apoplastic fluid; not shown: polyhistidine tag, C-terminal, kept

PDL1His(ΔXF) [2] = target: T1, PDL1His(ΔXF); test: SPR; Biacore T200, 25 °C; ^WTPD1-^HFc(HEK) captured to ~80 RU on a CM5 chip (Human antibody capture kit); analyte PDL1His 250-4000 nM; 10 mM HEPES pH 7.4, 150 mM NaCl, 0.005% Tween 20; steady-state analysis, kinetic fit not possible; settings: both partners purified

B1: ^WTPD1-Fc(HEK) (Fc fusion, human, UniProt Q15116 25-170, looked up)
chain: LDSPDRPWNPPTFSPALLVVTEGDNATFTCSFSNTSESFVLNWYRMSPSNQTDKLAAFPEDRSQPGQDCRFRVTQLPNGRDFHMSVVRARRNDSGTYLCGAISLAPKAQIKESLRAELRVTERRAEVPTAHPSPSPRPAGQFQTLV
modifications: all glyco-sites decorated with complex glycans (bi-, tri- and tetra-antennary, core-fucosylated, with or without terminal sialylation)
- EC50 (PDL1His(ΔXF) [1]): 5.33 nM
- Kd (PDL1His(ΔXF) [2]): 2400 nM
